The list shows a part of the results, in another mix than the full data. Some structures show a salt or complex split into parts, the way the source records it. Activity calls are given as the source filed them.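 Rule for the calls: active = inhibition exceeding the mean over every tested compound plus 3 SD (cut at about 30% in these data); inactive = the rest.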
The molecules below were run against (Lyso)-N-acylphosphatidylethanolamine lipase (Mus musculus) (UniProt Q8VD66) (assay: ABHD4 inhibitors, primary screen, biochemical, fluorescence polarization, mouse (AID 720543;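 note: 0% = plate median of compound wells and 100% = S159A mutant with DMSO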)). Conditions: purified mABHD4, FP-Rh probe fluorescence polarization; at 8.92 µM; active compounds read high.
In short: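 Test system: mouse ABHD4 enzyme, wild type. Reagent: FP-Rh fluorescent activity-based probe, added after compound pre-incubation. Timing: pre-incubation 45 min, probe exposure 60 min, at 25 °C. Technique: FP readout, ex 525 nm / em 598 nm. Benchmarks: high control S159A mutant with DMSO, low control median of compound wells.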

Chains of the proteins cited; added tags and fusions are not shown.
UniProt Q8VD66, whole entry: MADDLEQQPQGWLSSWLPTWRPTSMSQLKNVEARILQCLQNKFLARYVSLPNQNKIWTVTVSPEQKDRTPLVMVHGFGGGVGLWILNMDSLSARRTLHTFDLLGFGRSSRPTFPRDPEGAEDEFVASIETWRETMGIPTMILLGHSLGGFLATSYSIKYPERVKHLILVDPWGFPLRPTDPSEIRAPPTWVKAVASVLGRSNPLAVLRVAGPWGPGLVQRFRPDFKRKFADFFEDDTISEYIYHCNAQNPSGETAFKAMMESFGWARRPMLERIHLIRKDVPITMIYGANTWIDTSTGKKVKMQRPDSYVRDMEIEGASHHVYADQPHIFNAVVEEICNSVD

SMILES | inhibition
CN(C)C(=O)c1c([N+](=O)[O-])cc([N+](=O)[O-])cc1[N+](=O)[O-] | inactive: -1.97%
CP(=O)(Nc1ccc(Cl)cc1)Oc1ccc(F)cc1 (centres undefined) | inactive: -7.92%
CC(C)(C)c1ccc(OP(C)(=O)O)cc1 | inactive: 1.1%
COc1ccccc1OP(C)(=O)Nc1ccccc1Br (centres undefined) | inactive: -0.79%
CCc1ccc(OP(C)(=O)Nc2cccnc2)cc1 (centres undefined) | inactive: 3.27%
CP(=O)(Oc1ccccc1)N1CCOC1=O (centres undefined) | inactive: -0.89%
O=C(OCCCN1CCCC1)C(O)(c1ccccc1)C1CCCCC1 (centres undefined) | inactive: -6.49%
COc1ccccc1OP(C)(=O)Nc1c(C)n(C)n(-c2ccccc2)c1=O (centres undefined) | inactive: 3.39%
COc1ccc(OP(C)(=O)Nc2ccc(Br)cc2)cc1 (centres undefined) | inactive: -7.1%
CCN(CC)CC(O)COC(=O)C(O)(c1ccccc1)C1CCCCC1 (centres undefined) | inactive: 7.05%
CP(=O)(OC12CC3CC(CC(C3)C1)C2)OC12CC3CC(CC(C3)C1)C2 | inactive: 14.6%
CCOC(=O)c1ccc(NP(C)(=O)Oc2ccc(Cl)cc2)cc1 (centres undefined) | inactive: -5.07%
Nc1ccc2c(ccc3cccnc32)n1.O=[N+]([O-])c1cc([N+](=O)[O-])c(O)c([N+](=O)[O-])c1 | inactive: -0.02%
CP(=O)(OCCOc1ccccc1)OCCOc1ccccc1 | inactive: -8.4%
CP(=O)(Nc1ccc(Cl)cc1Cl)Oc1ccccc1 (centres undefined) | inactive: -4.6%
CCCCCCCCCCCCCCCC1C[N+](C)(C)CCOP(C)(=O)O1 (centres undefined) | active: 32.2%
COc1ccc(OP(C)(=O)Nc2ccccc2Br)cc1 (centres undefined) | inactive: 8.76%
COc1ccccc1OP(C)(=O)Nc1ccc(C)c(C)c1 (centres undefined) | inactive: 4.52%
Cc1cc(C)cc(OP(C)(=O)Nc2cccc(C(F)(F)F)c2)c1 (centres undefined) | inactive: -1.77%
O=C1C(O)=C([N+](=O)[O-])C(=O)C(O)=C1[N+](=O)[O-] | inactive: 26.2%
CCc1ccc(OP(C)(=O)O)cc1 | inactive: 2.09%
COc1ccccc1OP(C)(=O)Nc1ccc(C)cc1C (centres undefined) | inactive: 2.85%
CP(=O)(Nc1ccccn1)Oc1ccccc1 (centres undefined) | inactive: 0.24%
O=[N+]([O-])c1cc([N+](=O)[O-])c(Nc2ccccn2)c([N+](=O)[O-])c1 | inactive: -1.86%
Cc1c(NP(C)(=O)Oc2ccc(C(C)C)cc2)c(=O)n(-c2ccccc2)n1C (centres undefined) | inactive: -4.92%

SMILES | inhibition
CN(C)CCOC(=O)C(O)(c1ccccc1)C1CCCC1 (centres undefined) | inactive: -4.52%
COc1ccc(OP(C)(=O)Nc2ccccn2)cc1 (centres undefined) | inactive: -3.32%
COc1ccccc1OP(C)(=O)Nc1ccc(Br)cc1 (centres undefined) | inactive: 2.54%
COc1ccc2c(c1O)-c1c(O)c(OC)cc3c1[C@H](C2)[N+](C)(C)CC3.O=[N+]([O-])c1cc([N+](=O)[O-])c([O-])c([N+](=O)[O-])c1[O-] | inactive: 7.73%
O=C(OCCN1CCN(CCOCc2ccccc2)CC1)C(O)(c1ccccc1)c1ccccc1 | inactive: 1.51%
O=C(OC1CN2CCC1CC2)c1ccc([N+](=O)[O-])cc1 (centres undefined) | inactive: -4.78%
CC(C)c1ccc(OP(C)(=O)Nc2ccc(SC(F)(F)F)cc2)cc1 (centres undefined) | inactive: -4.23%
CP(=O)(Nc1ccccc1F)Oc1ccccc1 (centres undefined) | inactive: -1.32%
O=[N+]([O-])c1cc([N+](=O)[O-])c(Nc2ccc(Cl)cc2)c([N+](=O)[O-])c1 | inactive: 5.84%
O=[N+]([O-])c1cc([N+](=O)[O-])c(OC2CCCCC2O)c([N+](=O)[O-])c1 (centres undefined) | inactive: -0.38%
CCCCCOc1ccc(NP(C)(=O)Oc2ccc(Cl)cc2Cl)cc1 (centres undefined) | inactive: -3.31%
CP(=O)(Nc1ccccc1)Oc1ccc(F)cc1 (centres undefined) | inactive: 3.95%
CCN(CC)CCCOC(=O)C(O)(c1ccccc1)C1CCCCC1 (centres undefined) | inactive: 9.82%
Cc1c([N+](=O)[O-])cc([N+](=O)[O-])c(Br)c1[N+](=O)[O-] | inactive: -20.3%
COc1ccc(OP(C)(=O)Nc2ccc(SC(F)(F)F)cc2)cc1 (centres undefined) | inactive: -8.76%
CCOC(=O)c1ccc(NP(C)(=O)Oc2ccc(F)cc2)cc1 (centres undefined) | inactive: 4.91%
CCN(CC)CCCNc1ccccc1[N+](=O)[O-].O=[N+]([O-])c1cc([N+](=O)[O-])c(O)c([N+](=O)[O-])c1 | inactive: -7.5%
Cc1c(C(c2ccc3c(c2)OCO3)c2c(C)n(C)n(-c3ccccc3)c2=O)c(=O)n(-c2ccccc2)n1C.O=[N+]([O-])c1cc([N+](=O)[O-])c(O)c([N+](=O)[O-])c1 | inactive: 3.54%
O=[N+]([O-])c1cc([N+](=O)[O-])c(NCC2CCS(=O)(=O)C2)c([N+](=O)[O-])c1 (centres undefined) | inactive: 8.5%
Cc1cc(-c2cccc3ccccc23)c(C)cn1.O=[N+]([O-])c1cc([N+](=O)[O-])c(O)c([N+](=O)[O-])c1 | inactive: -6.31%
O=[N+]([O-])c1ccc(OP2(=O)COCCO2)cc1 (centres undefined) | inactive: 0.86%
COc1ccc(NP(C)(=O)Oc2ccccc2OC)cc1 (centres undefined) | inactive: -0.05%
CN(C)CCOC(=O)C(O)(c1ccccc1)C1CCCCC1 (centres undefined) | inactive: -2.15%
COc1ccc(OP(C)(=O)Nc2cccc(Br)c2)cc1 (centres undefined) | inactive: -6.01%
O=[N+]([O-])c1cc([N+](=O)[O-])c(C(F)(F)F)c([N+](=O)[O-])c1O | inactive: -65.4%

SMILES | inhibition
Cc1ccccc1NP(C)(=O)Nc1ccccc1C | inactive: 3.23%
CP(=O)(Nc1ccc2c(c1)OCCO2)Oc1ccccc1 (centres undefined) | inactive: 3.18%
CCOP(=O)(CC)OCC | inactive: -0.97%
CCOP(C)(=S)SCC(=O)NC(C)(CC)C(=O)O (centres undefined) | inactive: 9.08%
CP(=O)(Nc1ccc(SC(F)(F)F)cc1)Oc1ccc(F)cc1 (centres undefined) | inactive: -5.02%
Cc1nc2ccc3ccccc3c2s1.O=[N+]([O-])c1cc([N+](=O)[O-])c(O)c([N+](=O)[O-])c1 | inactive: -12.5%
O=[N+]([O-])c1cc([N+](=O)[O-])c(-c2cnn(-c3ccccc3)c2)c([N+](=O)[O-])c1 | inactive: -2.26%
CN(Cc1cccnc1)C(=O)COc1ccc(Cl)c(Cl)c1.O=[N+]([O-])c1cc([N+](=O)[O-])c(O)c([N+](=O)[O-])c1 | inactive: -6.84%
O=[N+]([O-])c1cc([N+](=O)[O-])c(-n2nnc3ccccc32)c([N+](=O)[O-])c1 | inactive: 0.55%
CP(=O)(Nc1ccc(SC(F)(F)F)cc1)Oc1ccccc1 (centres undefined) | inactive: -1.3%
CCCOc1ccc(NP(C)(=O)Oc2ccc(Cl)cc2)cc1 (centres undefined) | inactive: -2.61%
COc1ccc(-c2ccccn2)cc1.O=[N+]([O-])c1cc([N+](=O)[O-])c(O)c([N+](=O)[O-])c1 | inactive: -1.13%
CN1CCCCC1COC(=O)C1(O)c2ccccc2CCc2ccccc21 (centres undefined) | inactive: -1.53%
COc1ccccc1OP(C)(=O)Nc1c(C)cccc1C (centres undefined) | inactive: -8.6%
CCOC(=O)C(CC)C1=NC(C)(C)Cc2ccccc21.O=[N+]([O-])c1cc([N+](=O)[O-])c(O)c([N+](=O)[O-])c1 (centres undefined) | inactive: -1.68%
O=[N+]([O-])c1cc([N+](=O)[O-])c(Nc2nnnn2CCO)c([N+](=O)[O-])c1 | inactive: 9.14%
CC1=NCCc2c1[nH]c1ccccc21.O=[N+]([O-])c1cc([N+](=O)[O-])c(O)c([N+](=O)[O-])c1 | inactive: 2.64%
O=C(O)c1cccc(Nc2c([N+](=O)[O-])cc([N+](=O)[O-])cc2[N+](=O)[O-])c1 | inactive: 1.82%
CP(=O)(Nc1cccc(Br)c1)Oc1ccccc1 (centres undefined) | inactive: -2.27%
Cc1cc(C)cc(OP(C)(=O)Nc2ccccn2)c1 (centres undefined) | inactive: -7.81%
Cc1ccc(C)c(NP(C)(=O)Oc2ccccc2)c1 (centres undefined) | inactive: 0.32%
Cc1cc(C)cc(OP(C)(=O)Nc2ccc(C)cc2C)c1 (centres undefined) | inactive: -1.02%
CCOC(=O)c1ccc(NP(C)(=O)Oc2cc(C)cc(C)c2)cc1 (centres undefined) | inactive: -4.08%
COc1ccccc1OP(C)(=O)Nc1cccc(Br)c1 (centres undefined) | inactive: 2.49%
COc1ccccc1-c1ccccn1.O=[N+]([O-])c1cc([N+](=O)[O-])c(O)c([N+](=O)[O-])c1 | inactive: -2.7%

SMILES | inhibition
CCN(CC)CCCOC(=O)C(O)(c1ccccc1)c1ccccc1 | inactive: -5.47%
COc1ccc(OP(C)(=O)Nc2cccc(F)c2)cc1 (centres undefined) | inactive: -2.8%
COc1ccccc1OP(C)(=O)Nc1cc(Cl)ccc1C (centres undefined) | inactive: 2.91%
Cc1cc(C)cc(OP(C)(N)=O)c1 (centres undefined) | inactive: 0.08%
CCOC(=O)c1ccc(NP(C)(=O)Oc2ccccc2)cc1 (centres undefined) | inactive: 1.1%
Cc1ccc(NP(C)(=O)Oc2ccccc2)c(C)c1 (centres undefined) | inactive: 7.29%
COc1ccccc1OP(C)(=O)Nc1ccc(C)cc1 (centres undefined) | inactive: -11.9%
Cc1cccc(C)c1OP(C)(N)=O (centres undefined) | inactive: -4.74%
CC(C)(C)c1ccc(OP(C)(=O)Nc2ccc(SC(F)(F)F)cc2)cc1 (centres undefined) | inactive: 0.74%
O=[N+]([O-])c1ccc2c(c1)C=Nc1ccccc1O2 | inactive: -1.38%
O=[N+]([O-])c1cc([N+](=O)[O-])c(Nc2cccnc2)c([N+](=O)[O-])c1 | inactive: 10.7%
COc1ccccc1OP(C)(=O)Nc1ccccc1 (centres undefined) | inactive: -2.63%
CP(=O)(Nc1ccccc1Br)Oc1ccccc1 (centres undefined) | inactive: 0.97%
CP(=S)(Nn1cnnc1)Oc1ccccc1 (centres undefined) | inactive: 6.36%
CP(=O)(Nc1ccccn1)Oc1ccc(Cl)cc1 (centres undefined) | inactive: 7.55%
CCOP(C)(=S)SCC(=O)NC(C)C(=O)O (centres undefined) | inactive: -0.42%
O=[N+]([O-])c1cc([N+](=O)[O-])c(O)c([N+](=O)[O-])c1.c1ccc(Oc2ccncc2)cc1 | inactive: -1.11%
CCOC(=O)c1ccc(NP(C)(=O)Oc2ccc(OC)cc2)cc1 (centres undefined) | inactive: -8.56%
Cc1cc(C)cc(OP(C)(=O)Nc2ccc(SC(F)(F)F)cc2)c1 (centres undefined) | inactive: 9.67%
CCc1ccc(OP(C)(=O)N2CCN(c3ccc([N+](=O)[O-])cc3)CC2)cc1 (centres undefined) | inactive: 1.05%
CP(=O)(NC(=O)Nc1ccccc1)Oc1ccccc1 (centres undefined) | inactive: 0.51%
CP(=O)(Oc1ccccc1)OC(c1ccccc1)C(F)(F)F (centres undefined) | inactive: 1.51%
CP(=O)(Nc1ccc(SC(F)(F)F)cc1)Oc1ccc(Cl)cc1 (centres undefined) | inactive: -15.6%
Cc1cccc(C)c1OP(C)(=O)Nc1ccc(SC(F)(F)F)cc1 (centres undefined) | inactive: 8.42%

Source: PubChem BioAssay AID720543 (The Scripps Research Institute Molecular Screening Center, 2013)
